The values below are quoted from earlier work in patent US20190192527A1, “COMPOSITIONS COMPRISING PIKFYVE INHIBITORS AND METHODS RELATED TO INHIBITION OF RANK SIGNALING” (AI Therapeutics, Inc., priority 2016, published 2019).

This data set concerns adipocytes. The following applies: read-out: IC50, inhibition of basal and insulin-activated 2-deoxyglucose uptake; cited from earlier work.

With `Nc1ccc(C(=O)Nc2cccc(-c3nc(N4CCOCC4)c4oc5ncccc5c4n3)c2)cn1` [YM-201636, 6-amino-N-(3-(4-morpholinopyrido[3′,2′: 4,5]furo[3,2-d]pyrimidin-2-yl)phenyl)nicotinamide], the IC50 was 0.054 µM.
